In article PMC5450702 (Toxins, 2017):
Converted amounts (≈) assume the structure as drawn. Read-outs that look alike come from different tables or passages of the source.

What was measured:
TRPA1 [1] = assay: Fluorescent assay of calcium influx (Fluo-4), TRPA1-CHO; assay type: cell-based, rat; settings: 1 µM; stably transfected CHO cells, Fluo-4, room temperature, pH 7.4
[2] = tested on: Corynebacterium glutamicum; assay type: cell-based, Corynebacterium glutamicum (ATCC 13032)
TRPA1 [3] = settings: 240 µM, no agonist
human TRPV3 = settings: 60 µM; CHO cells stably expressing receptor
Staphylococcus aureus = settings: natural peptide, up to 200 µM; Mueller Hinton Broth, OD595, two parallels
TRPA1 [4] = tested on: TRPA1
mice [5] = settings: 10 μL, 50 μM solution into hind paw; 2 h experiment; hot plate 53 °C
mice [6] = settings: 0.2 mg/kg i.v. 30 min before testing; 15 min recording; results not shown
mice [7] = assay: CFA-induced inflammation and thermal hyperalgesia; assay type: in vivo, CD-1 mice; settings: n = 7
Escherichia coli = settings: natural peptide
mice [8] = settings: 0.2 mg/kg i.v., n = 7
Pseudomonas aeruginosa = settings: natural peptide
TRPA1 [9] = assay: Electrophysiology, TRPA1 in Xenopus laevis oocytes, diclofenac-induced currents; assay type: cell-based, rat; settings: for TRPA1 inward currents potentiation / TRPA1 outward currents potentiation: mean ± SD
rat TRPV1 = settings: 60 µM; CHO cells stably expressing receptor
[10] = OD595, Mueller Hinton Broth, room temperature, two parallels
[11] = 30 min before AITC (20 µL, 0.5%), 5 min recording, versus saline
[12] = 60 µM, 300 µM diclofenac, n = 5–7
[13] = 120 µM, 300 µM diclofenac, n = 5–7
[14] = 240 µM, 300 µM diclofenac, n = 5–7, "up to"
[15] = 0.3 to 27 µM, 300 µM diclofenac, Xenopus oocytes, Ca^2+-free, 22–24 °C, n = 5–7

C[C@H](NC(=O)[C@@H]1CSSC[C@@H]2NC(=O)[C@H](CC(=O)O)NC(=O)[C@H](Cc3c[nH]cn3)NC(=O)[C@H](Cc3ccccc3)NC(=O)CNC(=O)[C@H](CO)NC(=O)[C@H](CCC(=O)O)NC(=O)[C@@H]3CSSC[C@H](NC(=O)[C@@H]4CSSC[C@H](NC(=O)[C@H](Cc5c[nH]cn5)NC(=O)CNC(=O)[C@@H]5CSSC[C@H](N)C(=O)N[C@@H](Cc6ccc(O)cc6)C(=O)N6CCC[C@H]6C(=O)NCC(=O)N[C@@H](CCC(N)=O)C(=O)N6CCC[C@H]6C(=O)NCC(=O)N5)C(=O)N[C@@H](CO)C(=O)N[C@@H](CCCNC(=N)N)C(=O)N5CCC[C@H]5C(=O)N[C@@H](CC(N)=O)C(=O)N[C@@H](Cc5ccc(O)cc5)C(=O)N[C@@H](CSSC[C@H](NC(=O)[C@H](Cc5c[nH]c6ccccc56)NC(=O)[C@H](Cc5c[nH]cn5)NC(=O)[C@H](CC(=O)O)NC(=O)[C@H](CO)NC(=O)CNC2=O)C(=O)N[C@@H](CC(=O)O)C(=O)N[C@@H](C)C(=O)N[C@@H](CO)C(=O)NCC(=O)N[C@@H](CC(=O)O)C(=O)N[C@@H](CCCNC(=N)N)C(=O)N4)C(=O)N[C@@H](CCC(=O)O)C(=O)NCC(=O)N[C@@H](C)C(=O)N[C@@H](CCCNC(=N)N)C(=O)N3)C(=O)N1)C(=O)O [Ueq 12-1]
potentiation of AITC induced TRPA1 Ca^2+ influx (TRPA1 [1]): 35 ± 10% | growth inhibition at 50 µM ([2]; 50 µM): significantly inhibited growth | concentrations at which the peptide is antibacterial ([2]; 12.5 to 200 µM tested, Figure 5): ≥ 50 µM | antibacterial activity (in words) ([2]; natural peptide, up to 200 µM): moderate activity | MIC ([2]; natural peptide, lowest concentration with no bacterial growth, OD595, Mueller Hinton Broth, room temperature, 1.3−1.5 × 10^4 bacteria/mL, two parallels): 50 µM (≈ 240 µg/mL) | current caused by peptide alone in TRPA1-expressing oocytes (TRPA1 [3]): did not cause any current | agonistic / antagonistic activity on human TRPV3 (human TRPV3): neither agonistic nor antagonistic activity | antibacterial activity (in words) (Staphylococcus aureus): minor activity | effect on AITC-induced currents (in words) (TRPA1 [4]; 100 µM AITC, Figure 6F): same potentiating effect | potentiation of TRPA1 activation (in words) (TRPA1 [4]; 240 µM, induced by AITC): significantly potentiated | pain, paw edema, thermal hyperalgesia after paw injection (mice [5]): did not cause pain, paw edema or significant thermal hyperalgesia | normal behavior in the open field test (mice [6]): did not change the normal behavior | time to reversal of thermal hyperalgesia (mice [7]; 0.2 mg/kg i.v. 24 h after CFA, hot plate 53 °C): ≤ 30 min | effect on thermal hyperalgesia (in words) (mice [7]; 0.2 mg/kg i.v. 24 h after CFA, within 30 min): reversed thermal hyperalgesia | decrease of CFA paw edema (mice [7]; 0.2 mg/kg i.v., 24 h after injection): 27% | antibacterial activity (in words) (Escherichia coli; up to 200 µM): no activity | MIC (Escherichia coli; [10]): > 200 µM | reduction of paw licking (mice [8]; [11]): 49% | reduction of time spent guarding (mice [8]; [11]): 43% | AITC-induced nocifensive behavior (in words) (mice [8]; 30 min before AITC (20 µL, 0.5%)): significantly reduced | reduction of AITC paw edema, 2 h (mice [8]; 2 h after injection): 39% | reduction of AITC paw edema, 4 h (mice [8]; 4 h after injection): 57% | antibacterial activity (in words) (Pseudomonas aeruginosa; up to 200 µM): no activity | MIC (Pseudomonas aeruginosa; [10]): > 200 µM | TRPA1 inward currents potentiation (TRPA1 [9]; [12]): 378 ± 65% | TRPA1 outward currents potentiation (TRPA1 [9]; [12]): 200 ± 23% | TRPA1 inward currents potentiation (TRPA1 [9]; [13]): 719 ± 98% | TRPA1 outward currents potentiation (TRPA1 [9]; [13]): 453 ± 104% | TRPA1 inward currents potentiation (TRPA1 [9]; [14]): 2559 ± 959% | TRPA1 outward currents potentiation (TRPA1 [9]; [14]): 835 ± 566% | potentiation of TRPA1 activation (in words) (TRPA1 [9]; 240 µM, induced by diclofenac): significantly potentiated | effect in trace at 750 μM (TRPA1 [9]; 750 μM, Figure 6E): defunctionalization of TRPA1 | potentiation of TRPA1 inward currents, up to (TRPA1 [9]; [15]): 132–186% | potentiation of TRPA1 outward currents, up to (TRPA1 [9]; [15]): 120–135% | response to agonist at high peptide concentration (TRPA1 [9]; above 750 µM): no standard response to agonist | effect at high concentrations on response of the receptor (TRPA1 [9]; high concentrations): completely blocked the response of the receptor | agonistic / antagonistic activity on rat TRPV1 (rat TRPV1): neither agonistic nor antagonistic activity
